These results are taken from patent publication US10918720B2, “Selective dendrimer delivery to brain tumors” (The Johns Hopkins University, priority 2014, dated 2021).

This series relates to 9 L gliosarcoma. Put plainly: Confocal imaging of dendrimer and dextran-FITC distribution in intracranial tumor. As to conditions: co-injection of 2 mg D-Cy5 and 2 mg dextran-FITC.

As to “Fluorescein isothiocyanate-dextran [dextran-FITC]”, the “distribution in the tumor (confocal fluorescence)” value is “only observed around the tumor border and not in the tumor core”.
